Measurements reported in patent US8940491B2, “Genotoxicity as a biomarker for inflammation” (The Regents of the University of California, priority 2009, dated 2015).
Where two headings read alike, the source gives them in different places.

Assays:
[1] = test system: peripheral leukocytes
Text: Determination of oxidative DNA damage. The enzyme hOgg1-modified comet assay was used and carried out identically as previously described (1).

[2] = test system: mice; assay: Disease activity index in DSS-induced experimental colitis; format: in vivo; conditions: 3% (w/v) DSS in drinking water, 3 cycles (7 days DSS, 14 days water); after Day 4 of Cycle 1, Day 3 of Cycle 2, Day 2 of Cycle 3; p<0.001
Experimental: Induction of chemical colitis. […] Acute colitis was defined as a 7 day treatment, and chronic colitis as any further treatment including remission periods. Control animals received sterile acidified water only. Symptoms (weight loss, stool consistency, gross bleeding) were recorded daily for calculation of disease activity index (23).
Evaluation of Experimental Colitis. The disease activity index (DAI) is the average combined score of weight loss (0-4), stool consistency (0-4), and bleeding (0-4), used to score clinical symptoms (23).

[3] = test system: peripheral leukocytes; remark: listed apart in the source
[4] = test system: TNF-α, MCP-1, IFN-γ, TGF-β transcripts; assay: Quantitative real-time PCR of cytokines in peripheral blood, DSS colitis; format: in vivo, mouse; conditions: DSS treated mice, particularly after the first cycle
Experimental: RNA Isolation and Quantitative Real-Time PCR. Total RNA was isolated using QiaAmp RNA Blood Mini Kit (Qiagen) according to manufacturer's instructions. 25 ng/μl of total RNA was used for reverse transcription using OligodT (Invitrogen) and Superscript III Reverse Transcriptase (Invitrogen). 10 ng/μl of cDNA was used for quantitative real time PCR using Taqman Gene Expression Assays (Applied Biosystems, Foster City, Calif. p/n 4331182) for Tbp (TATA binding protein), TNF-α (tumor necrosis factor α), MCP-1 (monocyte chemoattractant protein 1, also known as CC chemokine ligand 2, CCL2), IFN-γ (interferon γ), TGF-β (tumor growth factor β) and Taqman Gene Expression Master Mix according to manufacturer's instructions on the ABI Prism 7500 sequence detection system (Applied Biosystems). Tbp was chosen as the endogenous control due to its low variability and low to medium relative abundance in terms of expression in blood (30). Each measurement was performed in triplicate and results were analyzed using SDS 2.2.1 software (Applied Biosystems). Gene expression was determined using the relative standard curve method normalized to Tbp expression.

[5] = test system: peripheral normochromatic erythrocytes; conditions: p<0.01
[6] = test system: Atm^−/− mice

dextran sulfate sodium [DSS]
Olive tail moment (DNA strand breaks, alkali-labile sites), wildtype mice ([1]; after the first DSS cycle, p<0.001): increased in wildtype mice after the first cycle | DNA strand breaks (olive tail moment), Atm−/− mice ([1]; over DSS treatment, regardless of remission periods): successively increased | Disease Activity Index (DAI) of DSS treated vs. non-treated mice [2]: significantly higher disease activity indices | 8-oxoguanine and nitrotyrosine formation in peripheral leukocytes, Atm−/− mice ([3]; 7 days of DSS treatment, p<0.05): significant increases in 8-oxoguanine | 8-oxoguanine and nitrotyrosine formation in peripheral leukocytes, wildtype mice ([3]; acute 7 day exposure to DSS, p<0.01): significant increases | Cytokine mRNA expression in peripheral blood (relative to Tbp) [4]: up-regulation of TNF-α, MCP-1 (CCL2), and IFN-γ | Micronucleus formation (MN-NCE per 1000 NCEs) ([5]; after first cycle of DSS vs non-treated): significantly induced after the first cycle of treatment | Micronucleus formation (MN-NCE per 1000 NCEs) ([5]; after second and third cycles vs non-treated and vs before cycle 1): further induced after the second and third cycles | Mortality of Atm−/− mice under DSS treatment ([6]; 3% DSS, 3 cycles, one death at end of cycle 2, one at end of cycle 3): Two out of ten | Disease activity index, Atm−/− vs wildtype and heterozygous mice ([6]; after acute 7 day exposure to DSS): mildly higher disease activity index
